One molecule from ChEMBL document CHEMBL6153144, “Conformational Role of Methyl in the Potency of Cyclohexane-Substituted Squaramide CCR6 Antagonists” (J Med Chem, 2025) can be followed below.

The chains behind the UniProt entries cited, without tags or fusion partners.
UniProt P25025, whole entry: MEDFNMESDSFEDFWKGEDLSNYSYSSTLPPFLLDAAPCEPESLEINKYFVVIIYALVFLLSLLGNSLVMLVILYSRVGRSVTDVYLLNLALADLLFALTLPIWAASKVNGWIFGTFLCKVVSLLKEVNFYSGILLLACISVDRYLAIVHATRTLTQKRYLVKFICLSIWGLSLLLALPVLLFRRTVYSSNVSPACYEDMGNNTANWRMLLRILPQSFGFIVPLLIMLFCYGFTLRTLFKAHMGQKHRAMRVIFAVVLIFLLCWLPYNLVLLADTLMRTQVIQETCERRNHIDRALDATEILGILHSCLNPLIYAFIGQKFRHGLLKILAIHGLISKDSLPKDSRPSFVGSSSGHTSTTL

Assay [1] has as its target T1, C-C chemokine receptor type 7 (Homo sapiens) (UniProt P32248).
T1 sequence (whole entry): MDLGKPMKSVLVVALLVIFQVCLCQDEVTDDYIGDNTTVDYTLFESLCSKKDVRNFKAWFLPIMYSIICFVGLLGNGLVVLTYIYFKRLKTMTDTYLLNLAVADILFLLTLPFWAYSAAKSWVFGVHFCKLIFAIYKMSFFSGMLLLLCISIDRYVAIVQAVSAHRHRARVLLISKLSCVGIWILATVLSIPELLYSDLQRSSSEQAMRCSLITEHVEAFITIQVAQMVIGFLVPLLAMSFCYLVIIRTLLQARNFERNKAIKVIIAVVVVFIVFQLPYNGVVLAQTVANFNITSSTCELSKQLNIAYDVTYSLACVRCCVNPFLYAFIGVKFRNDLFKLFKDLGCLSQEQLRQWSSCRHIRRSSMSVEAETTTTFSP
Kind of assay: Antagonist activity at CCR7 (unknown origin) by PathHunter beta-arrestin EFC technology relative to control. Particulars: filed as antagonist, concentration not given here. The format is functional.

Assay [2] concerns the target C-X-C chemokine receptor type 2 (Homo sapiens) (UniProt P25025). Kind of assay: Antagonist activity at CXCR2 (unknown origin) by PathHunter beta-arrestin EFC technology relative to control. The assay is classed as functional. Particulars: filed as antagonist, concentration not given here.

As to `C[C@@H]1OCCC[C@]1(C)Nc1c(Nc2ccnc(C(=O)N(C)C)c2O)c(=O)c1=O`, the inhibition in assay [1] worked out at 75%; in assay [2], 88%.
